Antibody variant affinities, Ab-14 light chain, assay 1

Target peptide (SARS-CoV-2 spike, HR2 region): PDVDLGDISGINAS

The variants keep the heavy chain, the linker and the frameworks of Ab-14 (scFv order VH, three GGGGS repeats, VL).
VH: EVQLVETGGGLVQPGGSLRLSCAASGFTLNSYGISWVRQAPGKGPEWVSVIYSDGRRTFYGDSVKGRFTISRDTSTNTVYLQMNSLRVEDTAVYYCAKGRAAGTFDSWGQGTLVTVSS
VL: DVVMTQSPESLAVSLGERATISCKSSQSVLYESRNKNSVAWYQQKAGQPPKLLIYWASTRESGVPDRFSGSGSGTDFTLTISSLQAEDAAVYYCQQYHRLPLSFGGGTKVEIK

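Phage display of a naive human antibody library on the peptide gave the parent. In library AAYL50, one, two or three CDR residues were substituted; doubles and triples were drawn at random. The assay is AlphaSeq: two haploid yeast populations carry antibody and antigen on their surface. After mating in shaken culture at 30 °C for 16 h, diploids were selected and their barcode pairs sequenced. Scores were corrected for input abundance and mapped to Kd with protein pairs of known affinity run in the same pool. Mating was done three times.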

Substitutions are numbered in sequence along the VL above, starting at 1 (not Kabat).
Numbers give log10(Kd / nM), so 0 is 1 nM and 3 is 1 µM. Smaller is tighter.
Averages over replicates are reported, and they cover detected replicates only.
"ND" marks a missing value. The strain was present, yet no cells mated with the target were sequenced in that replicate, which points to weak or no binding.

| changes | log10 Kd, replicates | log10 Kd (nM), mean | control signals |
|---|---|---|---|
| Q27Y/Y31S/Q95P | ND / ND / ND | ND | 0 of 9 |
| S58K/E61S/R99T | 4.76 / 3.88 / 6.07 | 4.90 | 2 of 9 (3.82) |
| K24D/S25C/S26M | 3.31 / 2.76 / 2.91 | 2.99 | 4 of 9 (4.09) |
| K24H/N37C/S103F | ND / 2.50 / ND | 2.50 | 0 of 9 |
| V29R/R60H/P101M | ND / ND / ND | ND | 1 of 9 (3.17) |
| S28N/S33I | 3.17 / 3.71 / 4.33 | 3.73 | 1 of 9 (3.92) |
| E61W/Q95T/Y97K | ND / ND / ND | ND | 0 of 9 |
| S26V/A57Y/T59Q | ND / ND / ND | ND | 1 of 9 (3.96) |
| S26F/N35C/S58E | 2.84 / 3.78 / 5.05 | 3.89 | 3 of 9 (3.95) |
| R34T/P101K | 4.56 / ND / 5.13 | 4.85 | 5 of 9 (4.34) |
| S25W/K36D/S38D | 2.65 / ND / ND | 2.65 | 0 of 9 |
| K36M/S38Y/H98G | 2.32 / 2.10 / 2.64 | 2.35 | 3 of 9 (4.10) |
| L30R/R34Q/A40Y | 3.27 / ND / 5.54 | 4.41 | 2 of 9 (3.33) |
| S58E/L100M | 1.06 / 1.02 / 1.18 | 1.09 | 0 of 9 |
| E61T/S62D/Q95A | 2.26 / 2.50 / 2.61 | 2.46 | 1 of 9 (3.27) |
| R34H/A57I/T59N | 2.33 / ND / ND | 2.33 | 0 of 9 |
| V29F/Y31F/Y97P | ND / ND / 3.09 | 3.09 | 0 of 9 |
| E61L | 0.95 / 0.96 / 1.00 | 0.97 | 0 of 9 |
| K24P/S28L | ND / ND / ND | ND | 2 of 9 (3.90) |
| L30Y/R34E/E61L | -0.22 / 0.14 / 0.19 | 0.04 | 0 of 9 |
| Y31G/N37S/Y97H | 1.82 / 1.77 / 1.99 | 1.86 | 7 of 9 (4.55) |
| Y31W/S33H/S103W | 3.61 / 4.27 / ND | 3.94 | 0 of 9 |
| Q95S/Y97H/H98T | ND / ND / ND | ND | 0 of 9 |
| S33Q | 1.25 / 1.22 / 1.45 | 1.31 | 5 of 9 (4.23) |
| S33M/R99T/S103L | 2.10 / 1.98 / 3.56 | 2.55 | 1 of 9 (3.35) |
| E32W/H98C/R99A | 1.95 / 1.93 / 2.42 | 2.10 | 1 of 9 (3.60) |
| S33L/S38A/V39S | ND / ND / ND | ND | 1 of 9 (3.57) |
| V39N/T59Q | ND / ND / 5.42 | 5.42 | 3 of 9 (4.01) |
| Q27L/Q96S/H98F | 1.48 / 1.39 / 1.44 | 1.44 | 1 of 9 (4.60) |
| K24D/S28D/Q95C | 3.85 / 3.64 / ND | 3.75 | 2 of 9 (4.50) |
| S26P/Q95K/R99A | 4.65 / 4.82 / ND | 4.74 | 5 of 9 (4.69) |
| K36P/W56Y/Q95E | 1.36 / 1.46 / 1.48 | 1.43 | 7 of 9 (4.53) |
| W56C/A57T/E61C | 2.63 / 2.27 / 2.49 | 2.46 | 3 of 9 (4.54) |
| S26Q/A57F/L102K | 5.23 / 4.78 / ND | 5.01 | 2 of 9 (4.31) |
| A40G/S62R/Q96M | ND / ND / ND | ND | 0 of 9 |
| Q27I/A40N/L102I | ND / ND / ND | ND | 1 of 9 (3.35) |
| N37G/S38A/R60D | ND / 3.98 / ND | 3.98 | 1 of 9 (3.29) |
| T59R/Q96Y/S103W | 2.52 / 2.71 / 4.13 | 3.12 | 2 of 9 (2.58) |
| N35W/A40N/L100F | ND / 3.27 / ND | 3.27 | 0 of 9 |
| S26C/H98S/L102T | ND / ND / ND | ND | 2 of 9 (3.51) |

Excerpt, the final 4 entries:

changes	log10 Kd, replicates	log10 Kd (nM), mean	control signals
N37G/S38A/R60D	ND / 3.98 / ND	3.98	1 of 9 (3.29)
T59R/Q96Y/S103W	2.52 / 2.71 / 4.13	3.12	2 of 9 (2.58)
N35W/A40N/L100F	ND / 3.27 / ND	3.27	0 of 9
S26C/H98S/L102T	ND / ND / ND	ND	2 of 9 (3.51)

Parent in this assay: reference entry 0.65, copy in this library 1.68.
As a blank, each scFv also met three strains without target: over library AAYL50, 18% of these pairings were detected, typically at 4.19 and seldom below 2.99. Also given: how often the same scFv was detected with the empty control strains, with their mean in brackets.

Reference: Engelhart et al. 2022, doi:10.1038/s41597-022-01779-4. File: FLAb, binding data.